Assay results reported in patent US20130071340A1, “POLYOL PARTIAL ESTERS FOR USE IN COSMETICS” (priority 2010, published 2013).

Assays:
[1] = Penetration tests of cosmetic active substances from a standard emulsion, prepared pig skin in modified Franz diffusion cells (OECD TG 428); assay type: in vitro ADME; conditions: Franz cell, 24 h, 32 °C, mean of six
[2] = UV filter solubility in the emollients; assay type: physicochemical; conditions: for UV filter solubility: Benzophenone-3: maximum soluble amount of benzophenone-3 (Uvinul M 40) in the emollient at 22 °C
Text: This operation was repeated until the maximum soluble amount of the UV filter was exceeded. At higher concentrations, often a longer stirring time of several hours is necessary for complete dissolution. When in this way the maximum concentration had been determined approximately, for fine determination the concentration range was repeated around this maximum concentration with smaller initial weighed amounts of the UV filter.

Row | Active substance in the receptor % ([1]; phytosphingosine salicylate 0.5 wt % in standard emulsion with 15 wt % emollient) | Active substance in the receptor % ([1]; retinol 0.5 wt % in standard emulsion with 15 wt % emollient) | Active substance in the receptor % ([1]; tocopherol 0.5 wt % in standard emulsion with 15 wt % emollient) | UV filter solubility: Ethylhexyl triazone ([2]; maximum soluble amount of ethylhexyl triazone (Uvinul T 150) in the emollient at 22 °C) | Substance | UV filter solubility: Benzophenone-3 [2]
1 | 0% | 0% | 0% | – | Caprylic/capric triglyceride | –
2 | – | – | – | 8.0% | C12-15 alkyl benzoate | 12.0%
3 | – | – | – | – | PPG-15 stearyl ether | 9.0%
